Consider one substance from US20240116832A1, “INHIBITORS OF SOIL NITRIFICATION AND PROCESSES TO PREVENT SAME” (Tessenderlo Group NV, priority 2019, published 2024).

In this data set the test system is earthworms. The conditions noted are these: after 14 days.

In the case of Ammonium thiosulfate, under “15 to 1500 L/ha, 10 earthworms per pot”, the earthworms died entry was “no earthworms had died”. The same substance returned an earthworm biomass decrease (acceptable limit 20%) of 3.9%.
